This test deals with prostanoid EP3 receptors (Homo sapiens, UniProt P43115). Briefly: binding on prostanoid EP3 receptors (method of Abramovitz et al.). The settings on record: read-out: Activity (EP3 receptor binding IC50). The procedure: The compounds of the invention may be assayed for their binding on prostanoid EP3 receptors according to the method of Abramovitz et al. [Bioch. Biophys. Actas 1473, 285-293 (2000)]. All of the examples in the tables below have been synthesized, characterized and tested for EP3 receptor binding.
The compounds of the invention were assayed for their binding on prostanoid EP3 receptors according to the method of Abramovitz et al. [Bioch. Biophys. Acta, 1473, 285-293 (2000)]. […] Compounds with IC50<1 μM are shown as +++; compounds with IC50<1-10 μM are shown as ++; and compounds with IC50>10 μM are shown as +.

By UniProt entry, the sequences of proteins in these tests, tags left out. Where a name states a change or a piece, a line headed by the entry shows the natural chain unless it says otherwise.
UniProt P43115: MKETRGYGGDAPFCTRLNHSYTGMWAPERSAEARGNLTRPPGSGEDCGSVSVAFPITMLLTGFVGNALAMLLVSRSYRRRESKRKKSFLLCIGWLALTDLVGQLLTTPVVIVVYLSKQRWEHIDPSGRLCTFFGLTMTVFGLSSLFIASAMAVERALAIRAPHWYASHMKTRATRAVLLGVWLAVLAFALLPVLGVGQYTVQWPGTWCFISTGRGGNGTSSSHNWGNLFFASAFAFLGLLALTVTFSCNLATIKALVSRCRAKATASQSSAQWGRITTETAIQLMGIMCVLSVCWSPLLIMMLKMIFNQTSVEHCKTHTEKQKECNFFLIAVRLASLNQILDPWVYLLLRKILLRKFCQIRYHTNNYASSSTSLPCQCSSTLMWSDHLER

A value given as a limit tells only on which side of the number the result lay.

As to `Cc1cn(Cc2ccc(Cl)cc2Cl)c2c(-c3nnc(NP(=O)(c4ccccc4)c4ccccc4)o3)cc(F)cc12`, the IC50 is over 10 µM.

Consider `Cc1cn(Cc2ccc(Cl)cc2Cl)c2c(-c3nnc(NP(=O)(Oc4ccc(Cl)cc4Cl)Oc4ccc(Cl)cc4Cl)o3)cc(F)cc12`, for which the IC50 was over 10 µM.

A word on the IC50: it is the concentration needed to halve the response being measured.
